# Reference: ChEMBL document CHEMBL1143823, “Addition of a C-terminal cysteine improves the anti-herpes simplex virus activity of a peptide containing the human immunodeficiency virus type 1 TAT protein transduction domain” (Antimicrob Agents Chemother, 2007)
# What was measured:
# [1] = system: Human alphaherpesvirus 1; assay: Antiviral activity against HSV1 in african green monkey Vero cells assessed as resistance to viral infection after 1 hr at 37 degC; format: functional, organism-based; settings: Human alphaherpesvirus 1, Vero
# How it was run: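 Vero monolayers exposed to peptide 1 h at 37°C, rinsed three times, infected with hrR3 (MOI 0.01) 1 h at 37°C without peptide. pH 3 citrate inactivates extracellular virus; lysate β-galactosidase (CPR-Gal, 570 nm) read 6 h later. EC50 from dose-response, triplicates per concentration.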
# [2] = system: Human alphaherpesvirus 1; assay: Antiviral activity against HSV1 in african green monkey Vero cells assessed as viral inactivation after 1 hr at 37 degC; format: functional, organism-based; settings: Human alphaherpesvirus 1, Vero
# How it was run: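 hrR3 virions (1×10^6–6×10^6 PFU/ml) in serum-free DMEM incubated with peptide 1 h at 37°C. Free peptide removed by 1,000-fold dilution or by pelleting at 14,000 × g. Infectivity then titrated on Vero cells in triplicate by lysate β-galactosidase or X-Gal staining. EC50 from dose-response curves.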
# [3] = system: Human alphaherpesvirus 1; assay: Reduction of HSV1 entry rate in african green monkey Vero cells at 37 degC; format: functional; parameters: scale not given: the % may be the effect or the level left
# [4] = system: Human alphaherpesvirus 1; assay: Inhibition of HSV1 entry in african green monkey Vero cells assessed as beta-galactosidase activity for 1 hr at 37 degC; format: functional, organism-based; settings: Human alphaherpesvirus 1, Vero
# How it was run: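 HSV-1 hrR3 (MOI 0.02–0.03) adsorbed to precooled Vero cells 1 h at 4°C and rinsed. Peptide added at 4°C, shifted to 37°C for 1 h of entry. Peptide rinsed off; pH 3 citrate 60 s. Lysis at 6 h, initial β-galactosidase rate (CPR-Gal, 570 nm) relative to mock, minus cycloheximide background; triplicates.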
# [5] = system: Vero; assay: Cytotoxicity against african green monkey Vero cells by trypan blue exclusion assay; format: cell-based; settings: chlorocebus sabaeus
# How it was run: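 Viability by trypan blue exclusion in Vero cells after peptide exposure.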
smiles,measurement,setting,value
CCCC[C@H](NC(=O)[C@H](CCCNC(=N)N)NC(=O)CN)C(=O)N[C@@H](CCCC)C(=O)N[C@@H](CCCNC(=N)N)C(=O)N[C@@H](CCCNC(=N)N)C(=O)N[C@@H](CCC(N)=O)C(=O)N[C@@H](CCCNC(=N)N)C(=O)N[C@@H](CCCNC(=N)N)C(=O)N[C@@H](CCCNC(=N)N)C(=O)N[C@@H](CS)C(=O)O,EC50,[1],> 1200 µM
same,EC50,[2],900 µM
same,Activity,[3],60%
same,EC50,[4],34 µM
same,Activity,[5],Non-toxic
